Data as given in paper PMC5290001 (Clinical cancer research : an official journal of the …, 2016).

Assay: Veliparib plasma pharmacokinetics
Type: in vivo, human

SMILES: C[C@]1(c2nc3c(C(N)=O)cccc3[nH]2)CCCN1 [Veliparib, veliparib]
- Cl/F (veliparib 20 mg alone (day 1), temozolomide dose 150 or 200 mg/m^2/day): 33.2±18.4 (3) L/h
- Cl/F (veliparib 20 mg in combination with temozolomide 150 or 200 mg/m^2/day (day 8)): 22.9±3.6 (3) L/h
- Cl/F (veliparib 40 mg alone (day 1), temozolomide dose 200 mg/m^2/day, n=1): 8.6 (1) L/h
- Cl/F (veliparib 120 mg alone (day 1), temozolomide dose 200 mg/m^2/day): 20.2±4.9 (10) L/h
- Cl/F (veliparib 120 mg in combination with temozolomide 200 mg/m^2/day (day 8)): 15.0±3.6 (8) L/h
- Cl/F (veliparib 150 mg alone (day 1), temozolomide dose 200 mg/m^2/day): 18.4±7.5 (16) L/h
- Cl/F (veliparib 150 mg in combination with temozolomide 200 mg/m^2/day (day 8)): 14.6±6.8 (10) L/h
- Cl/F (veliparib 200 mg alone (day 1), temozolomide dose 200 mg/m^2/day): 14.6±5.1 (4) L/h
- Cl/F (veliparib 200 mg in combination with temozolomide 200 mg/m^2/day (day 8)): 14.6±4.1 (3) L/h
